Test results published in patent publication US10858359B2, “Heterocyclic ring derivatives useful as SHP2 inhibitors” (priority 2016, dated 2020).

Test system: KYSE-520 cells
Experiment: Cell proliferation assay (MTS/PMS)
Format: cell-based
Conditions: Homo sapiens, 192 h, 1500 cells/well, RPMI-1640 3% FBS, read at day 8
Procedure: KYSE-520 (1500 cells/well) were plated onto 96-well plates in 100 μL medium (RPMI-1640 containing 3% FBS for KYSE-520 cells, Gibco). For drug treatment, compounds of the invention at various concentrations were added 24 hours after cell plating. At day 8, 50 μL MTS/PMS reagents (Promega/Sigma) were added, and the absorbance value was determined according to the supplier's instruction (Promega). The IC50 results of the compounds of the invention were shown by table 3.

CC(=O)N1CC(F)(F)c2c(Sc3ncc(N4CCC5(CC4)COC[C@H]5N)nc3N)cccc21 [Example 7, (S)-1-(4-((3-amino-5-(4-amino-2-oxa-8-azaspiro[4.5]decan-8-yl)pyrazin-2-yl)thio)-3,3-difluoroindolin-1-yl)ethanone]
IC50: 2170 nM
